# What was measured:
# Chains of the proteins cited; added tags and fusions are not shown. Residues count along the entry.
# UniProt P22455, 22-802 V550E: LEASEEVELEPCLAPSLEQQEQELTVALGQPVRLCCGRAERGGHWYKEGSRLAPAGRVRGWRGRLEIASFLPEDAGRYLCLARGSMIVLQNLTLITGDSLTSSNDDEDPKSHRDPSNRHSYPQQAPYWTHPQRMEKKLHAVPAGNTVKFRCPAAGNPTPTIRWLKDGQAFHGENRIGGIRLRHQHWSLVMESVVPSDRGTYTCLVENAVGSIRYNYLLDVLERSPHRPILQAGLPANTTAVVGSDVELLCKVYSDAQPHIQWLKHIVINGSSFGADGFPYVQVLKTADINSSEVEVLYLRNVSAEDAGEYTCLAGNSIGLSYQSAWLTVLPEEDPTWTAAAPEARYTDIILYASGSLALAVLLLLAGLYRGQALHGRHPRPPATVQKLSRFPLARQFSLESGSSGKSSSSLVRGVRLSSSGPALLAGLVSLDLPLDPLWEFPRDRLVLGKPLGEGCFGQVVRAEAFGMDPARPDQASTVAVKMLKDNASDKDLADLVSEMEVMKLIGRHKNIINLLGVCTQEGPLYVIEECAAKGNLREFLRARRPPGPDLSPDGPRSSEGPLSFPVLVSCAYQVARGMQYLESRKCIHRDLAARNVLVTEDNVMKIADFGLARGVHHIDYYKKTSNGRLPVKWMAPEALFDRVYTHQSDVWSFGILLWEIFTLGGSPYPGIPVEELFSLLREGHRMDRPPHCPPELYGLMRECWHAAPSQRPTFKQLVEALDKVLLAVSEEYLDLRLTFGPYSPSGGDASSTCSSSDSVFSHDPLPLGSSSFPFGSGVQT
# UniProt P22455, 22-802 N535K: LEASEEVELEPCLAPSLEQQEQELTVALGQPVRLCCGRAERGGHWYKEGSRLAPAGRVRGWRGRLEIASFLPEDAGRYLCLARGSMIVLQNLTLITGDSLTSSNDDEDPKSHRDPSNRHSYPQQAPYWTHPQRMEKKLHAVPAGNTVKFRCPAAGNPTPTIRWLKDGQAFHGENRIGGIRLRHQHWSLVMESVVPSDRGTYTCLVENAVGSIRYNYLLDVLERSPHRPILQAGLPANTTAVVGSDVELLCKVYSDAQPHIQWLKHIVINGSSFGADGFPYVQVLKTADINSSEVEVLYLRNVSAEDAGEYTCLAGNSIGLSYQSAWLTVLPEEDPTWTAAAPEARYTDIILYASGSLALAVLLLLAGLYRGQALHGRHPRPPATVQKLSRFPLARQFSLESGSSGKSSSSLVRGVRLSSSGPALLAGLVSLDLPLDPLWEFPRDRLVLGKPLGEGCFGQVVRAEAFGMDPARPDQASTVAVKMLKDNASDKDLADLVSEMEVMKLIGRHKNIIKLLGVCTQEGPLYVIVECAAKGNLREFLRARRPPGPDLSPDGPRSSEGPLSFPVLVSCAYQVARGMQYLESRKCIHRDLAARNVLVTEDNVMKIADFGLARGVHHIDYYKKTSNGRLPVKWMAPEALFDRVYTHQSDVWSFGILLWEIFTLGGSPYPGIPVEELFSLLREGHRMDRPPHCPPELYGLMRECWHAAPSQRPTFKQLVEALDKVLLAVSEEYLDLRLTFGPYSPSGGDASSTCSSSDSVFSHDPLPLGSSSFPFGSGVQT
# FGFR4 V550E (E550) = FGFR4 V550E (E550) (Homo sapiens, UniProt P22455, V550E); conditions: RMS772 E550, 20 μM of drug, 3 hour treatment
# FGFR4 N535K (K535) = FGFR4 N535K (K535) (Homo sapiens, UniProt P22455, N535K); conditions: RMS772 K535, 20 μM of drug, 3 hour treatment
compound,measurement,setting,value
CCN(CC)CCCCNc1ncc2cc(-c3cc(OC)cc(OC)c3)c(NC(=O)NC(C)(C)C)nc2n1 [PD173074],"phospho-FGFR4 (normalized to total FGFR4), of pretreatment levels",FGFR4 V550E (E550),45%
same,"phospho-FGFR4 (normalized to total FGFR4), of pretreatment levels",FGFR4 N535K (K535),74%

# — patent publication US8216783B2, “Over-expression and mutation of a tyrosine kinase receptor FGFR4 in tumors” (The United States of America, as represented by the …, priority 2008, dated 2012)
